# Source: article PMC6940354, “Comparative Assessment of the New PDE7 Inhibitor – GRMS-55 and Lisofylline in Animal Models of Immune-Related Disorders: A PK/PD Modeling Approach” (Pharmaceutical Research, 2020)
# Protein sequences, listed by entry. Tags and fused reporters are not part of them. Lines headed by an entry give the natural chain unless they say otherwise; changes in a name come on top.
# UniProt Q9Y233: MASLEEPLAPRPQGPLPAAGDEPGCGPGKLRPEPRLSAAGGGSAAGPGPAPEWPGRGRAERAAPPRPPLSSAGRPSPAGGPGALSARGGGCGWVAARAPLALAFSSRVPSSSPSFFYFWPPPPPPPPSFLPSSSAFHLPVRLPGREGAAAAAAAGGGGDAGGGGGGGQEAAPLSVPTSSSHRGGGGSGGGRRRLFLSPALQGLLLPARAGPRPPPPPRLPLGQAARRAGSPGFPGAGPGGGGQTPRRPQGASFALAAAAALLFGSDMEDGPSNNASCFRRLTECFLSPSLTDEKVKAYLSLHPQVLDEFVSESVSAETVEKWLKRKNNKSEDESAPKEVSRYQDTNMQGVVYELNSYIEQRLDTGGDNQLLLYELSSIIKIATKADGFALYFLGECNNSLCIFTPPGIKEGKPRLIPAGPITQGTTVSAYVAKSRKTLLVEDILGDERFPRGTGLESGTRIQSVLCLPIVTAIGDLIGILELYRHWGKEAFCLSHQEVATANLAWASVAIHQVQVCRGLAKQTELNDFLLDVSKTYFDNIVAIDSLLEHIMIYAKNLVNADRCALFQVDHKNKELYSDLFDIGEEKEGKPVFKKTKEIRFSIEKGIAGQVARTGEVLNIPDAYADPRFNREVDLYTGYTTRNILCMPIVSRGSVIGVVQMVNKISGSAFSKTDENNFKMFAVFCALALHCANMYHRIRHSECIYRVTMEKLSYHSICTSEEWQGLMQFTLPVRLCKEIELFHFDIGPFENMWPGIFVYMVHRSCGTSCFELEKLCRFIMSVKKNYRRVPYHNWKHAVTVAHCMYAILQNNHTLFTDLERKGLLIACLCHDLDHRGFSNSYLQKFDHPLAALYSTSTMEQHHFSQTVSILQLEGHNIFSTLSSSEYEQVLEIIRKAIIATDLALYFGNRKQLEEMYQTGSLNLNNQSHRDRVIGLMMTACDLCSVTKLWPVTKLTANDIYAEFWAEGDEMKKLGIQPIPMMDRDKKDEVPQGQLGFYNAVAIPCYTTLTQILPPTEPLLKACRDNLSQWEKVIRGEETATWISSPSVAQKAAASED
# Target: hrPDE10A (Homo sapiens, UniProt Q9Y233)
# Assay: PDE-Glo Phosphodiesterase Assay, hrPDE10A
# Details: IC50 PDE10A, Estimate (CV%), cAMP substrate
smiles,measurement,value
"COc1ccc(Cc2nccc3cc(OC)c(OC)cc23)cc1OC [Papaverine, papaverine]",IC50,< 1000 nM and 66 nM

# “And” between values parts separate entries of the source, which are not always exact repeats. Equal entries are not always repeated.
